Assay outcomes deposited in PubChem by National Center for Advancing Translational Sciences (NCATS).
A selection: hits, their analogues and other compounds. The true share with any hit is near 0.59%.
Rango complex inh: qHTS Assay for Inhibitors of Rango (Ran-regulated importin-beta cargo) - Importin beta complex formation. Potency, µM (series often up to 92.2 µM), without a hit: at the top dose inhibition of complex formation. AID 540263, 2011. 0.031% of 340,000 active. Rango CFP/YFP FRET sensor + importin beta, 45 min;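 also: potency is read from the fitted curve at half-maximal effect; 0% = DMSO wells and 100% = buffer wells lacking importin beta; nearly all actives have a fitted effect of over 15% in size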
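FRET biosensor Rango (snurportin 1 IBB between N-terminal EYFP and C-terminal Cerulean), 50 nM in PBS/1 mM DTT/0.02% Tween-20/0.1% BSA, preincubated 5 min RT with compound; 0.125 microM importin beta added, 45 min RT, CFP/YFP FRET ratio read.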
A-T KAP1 phos: qHTS Assay for Identifying a Potential Treatment of Ataxia-Telangiectasia | F2112 A-T fibroblasts, KAP-1 phosphorylation AlphaLISA; neocarzinostatin DNA damage 30 min before lysis | Potency, µM (doses to about 57.5 µM), without a hit: at the top dose activation, usual class: activators | 0.19% of 320,000 active | AID 485349, 2010; active = well fitted activation curve with a large enough effect; inconclusive = small, poorly fitted or top-dose-only effect; inactive = no such curve, though single readings can be large or run the other way; also: potency is read from the fitted curve at half-maximal effect; % of control where 0% means no effect; nearly all actives have a fitted effect of over 45% in size
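ATM-like activity read as KAP-1 phosphorylation via AlphaLISA donor/acceptor antibody pairs after lysis and 6 hr at 25C. Cells were ATM-null patient fibroblasts (F2112, hTERT), dosed 60 min, then exposed to the DSB inducer NCS for 30 min.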
PKM2 activator: qHTS Assay for Activators of Human Muscle isoform 2 Pyruvate Kinase; purified PKM2, Kinase-Glo ATP luminescence, activation; response scale: 0% is enzyme alone, no compound; Potency, µM (doses to about 57.5 µM), without a hit: at the top dose activation, actives largely listed as activators; AID 1631, 2009; 0.34% of 260,000 active; active = well fitted activation curve with a large enough effect; inconclusive = small, poorly fitted or top-dose-only effect; inactive = no such curve, though single readings can be large or run the other way; also: potency is read from the fitted curve at half-maximal effect; % is scaled to controls: 0 for no effect and ±100 for the full control effect; nearly all actives have a fitted effect of over 55% in size
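hPK-M2, >95% pure; 0.1 mM ADP / 0.5 mM PEP final; imidazole pH7.2 buffer w/ 7 mM MgCl2, 50 mM KCl; 1 h RT; Kinase-Glo lum. Intermediate enzyme activity for dual inhibitor/activator qHTS.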
IL2 activator: qHTS of IL-2 Activators; 0.065% of 360,000 active; IL-2 activation reporter assay, cell-based qHTS; stimulated with anti-CD3/CD4/CD28 beads; in transgenic mouse T cells; activation, % (series mostly up to about 46 µM); in the data active = activation above about 50%; inconclusive = mostly about 30% to 49%; also: 0% is about no effect
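Unstimulated transgenic mouse T cells preincubated 60 min with compound, then stimulated with anti-CD3/anti-CD4-coated beads plus anti-CD28 for 18 h at 37 degrees C. IL-2 response read as EGFP and DsRed fluorescence by plate cytometry.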
Rango dissoc inh: qHTS Assay for Inhibitors of RanGTP induced Rango (Ran-regulated importin-beta cargo) - Importin beta complex dissociation | Snurportin-1 (Homo sapiens) + GTP-binding nuclear protein Ran (Homo sapiens) + Importin … | Potency, µM (highest dose often 46.1 µM), without a hit: at the highest dose activity change, negative = inhibition | AID 540253, 2011 | 0.071% of 340,000 active | Biochemical FRET Rango-importin beta, RanGTP-induced dissociation; also: potency is read from the fitted curve at half-maximal effect; % of control where 0% means no effect; nearly all actives have a fitted effect of over 45% in size
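Rango FRET biosensor (snurportin-1 IBB flanked by N-terminal EYFP and C-terminal CFP10) at 0.1 uM, with 0.25 uM importin beta in PBS, 1mM DTT, 0.02% Tween-20, 0.1% BSA. 0.6 uM Ran, 2mM GTP and 0.2 uM RCC1 were then added for 45 min at room temperature. Inhibition read as loss of FRET rise.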
* = called active by the depositor; ? = inconclusive; . = not tested or not shown. Unless noted, calls follow the shape of the full dose curve.

Every second line gives: Rango complex inh | Rango dissoc inh | A-T KAP1 phos | PKM2 activator | IL2 activator
1: CCOC(=O)C(NC(=O)c1ccccc1)C(C)(C)SCc1ccccc1 (stereo unspecified)
    -3% | -14% | . | . | -2
2: O=C1NC[C@@H](CCCCN2CCN(Cc3ccccc3)C(=O)C2=O)N(Cc2ccccc2)C1=O
    . | . | . | . | 0
3: Cc1cc(C2=NNC(=Nc3ccc(S(=O)(=O)N4CCOCC4)cc3)SC2)c(C)n1C
    0% | -2% | 32µM* | ? | 1
4: C=CCn1c(C)cc(C2=NNC(=Nc3ccc(C)cc3)SC2)c1C
    0% | 3% | -3% | . | 0
5: CCCc1nn(C)c(C(=O)Nc2ccc(C(C)(C)C)cc2)c1Cl
    4% | 0% | 35µM* | -4% | 0
6: CCCc1nn(C)c(C(=O)Nc2ccc(Cl)cc2)c1Cl
    -1% | 1% | 4% | 0% | -3
7: Cc1ccc(CNC(=O)c2cccc3c2C(=O)c2ccc(N4CCOCC4)cc2S3(=O)=O)cc1
    ? | ? | 3% | . | 2
8: COCCNC(=O)c1cccc2c1C(=O)c1ccc(N3CCOCC3)cc1S2(=O)=O
    46µM* | -6% | -7% | . | -2
9: CCc1nc(NCCc2ccccn2)c2nnn(Cc3ccccc3F)c2n1
    3% | 0% | -3% | 25µM* | 0
10: CCOc1ncccc1C(=O)NCCN1C(=O)S/C(=C/c2cccs2)C1=O
    0% | 6% | 1% | 16µM* | -1
11: CC(C)(C)OC(=O)NCCCC[C@H](NC(=O)c1nc[nH]c1C(=O)N[C@@H](CCCCNC(=O)OC(C)(C)C)C(=O)OC(C)(C)C)C(=O)OC(C)(C)C
    4% | 2% | 22µM* | -1% | -1
12: CC(C)(C)OC(=O)NCCCCCNC(=O)c1[nH]cnc1C(=O)N[C@@H](CCCCNC(=O)OC(C)(C)C)C(=O)OC(C)(C)C
    0% | 1% | -7% | -3% | -4
13: COc1ccc(C(=O)CSc2nc3ncccc3[nH]2)cc1OC
    8% | -13% | 0.79µM* | 3% | -4
14: COc1ccccc1NC(=O)CSc1nc2ncccc2[nH]1
    0% | -8% | 0% | 0% | -3
15: Cc1ccc(S(=O)(=O)N2CCN(C(=O)Cc3ccc4c(c3)OCCO4)CC2)cc1C
    -2% | 7% | 10% | 3.2µM* | -4
16: CSc1ccc(S(=O)(=O)N2CCN(Cc3ccc4c(c3)OCO4)CC2)cc1
    0% | -19% | 10% | 7.9µM* | 1
17: O=C(Cc1ccc2c(c1)OCCO2)N1CCN(S(=O)(=O)c2ccccc2C(F)(F)F)CC1
    ? | ? | 2% | ? | -4
18: Cc1ccc(S(=O)(=O)N2CCCN(S(=O)(=O)c3ccc(C)c(C)c3)CC2)cc1C
    5% | -9% | -1% | 2.2µM* | 0
19: O=C(Cc1ccc2c(c1)OCCO2)N1CCN(S(=O)(=O)c2cccc(Cl)c2Cl)CC1
    1% | 5% | -4% | 2.8µM* | 0
20: C=C(C)CCC(C)N1CCC(n2nccc2NC(=O)CCCc2ccccc2)CC1 (stereo unspecified)
    -2% | 14% | -10% | . | 1
21: Cc1ccc(-c2csc(C(O)c3cccc(Cl)c3)n2)cc1C (stereo unspecified)
    . | . | . | . | -1
22: COC(=O)[C@@]1(Cc2ccc(F)cc2)[C@H]2c3cc(C(=O)N(C)C)n(Cc4ccccc4)c3C[C@H]2CN1C(=O)c1ccccc1
    3% | -19% | -2% | 1% | 0
23: COC(=O)[C@@]1(Cc2ccc(F)cc2)[C@H]2c3cc(C(=O)N(C)C)n(Cc4ccc(C)o4)c3C[C@H]2CN1C(=O)c1ccccc1
    . | . | . | 7.1µM* | -1
24: CCn1ncc(CN2CCC(n3nccc3NC(=O)c3ccccc3Cl)CC2)c1C
    . | . | . | . | -2
25: Nc1nc(-c2ccccc2)c(-c2ccc([N+](=O)[O-])cc2)s1
    ? | ? | 2% | 20µM* | 0
26: Cc1cc(-c2nnc(SCC(=O)Nc3ccccn3)o2)no1
    3% | -5% | -1% | 16% | 0
27: Cc1cc(-c2nnc(SCC(=O)Nc3nccs3)o2)no1
    -5% | -7% | -3% | 16µM* | -1
28: COc1ccc2[nH]c(=O)cc(C(=O)O)c2c1
    0% | -7% | 0% | 0% | 0
29: COc1ccc2[nH]c3c4c(ccc3c2c1)C(=O)C=CC4=O
    ? | 4.6µM* | -11% | 1.3µM* | -5
30: COc1ccccc1CNc1ncnc2c1nnn2Cc1ccccc1
    2% | -12% | 4% | 20µM* | -1

Overlap with the part before: 5 compounds, then new ones.
Every second line gives: Rango complex inh | Rango dissoc inh | A-T KAP1 phos | PKM2 activator | IL2 activator
26: Cc1cc(-c2nnc(SCC(=O)Nc3ccccn3)o2)no1
    3% | -5% | -1% | 16% | 0
27: Cc1cc(-c2nnc(SCC(=O)Nc3nccs3)o2)no1
    -5% | -7% | -3% | 16µM* | -1
28: COc1ccc2[nH]c(=O)cc(C(=O)O)c2c1
    0% | -7% | 0% | 0% | 0
29: COc1ccc2[nH]c3c4c(ccc3c2c1)C(=O)C=CC4=O
    ? | 4.6µM* | -11% | 1.3µM* | -5
30: COc1ccccc1CNc1ncnc2c1nnn2Cc1ccccc1
    2% | -12% | 4% | 20µM* | -1
31: CC(C)CCNc1ncnc2c1nnn2Cc1ccccc1
    0% | 17% | -4% | 0% | -1
32: CC(C)N(C(=O)[C@H]1C[C@H](CC(=O)NCCN2CCOCC2)C(=O)N2CCc3c([nH]c4cc(CCC(=O)N(C)C)ccc34)[C@]12C)C(C)C
    1% | ? | -2% | . | 1
33: O=C(O)c1ccc(N/N=C/C2=Cc3ccccc3OC2)cc1
    ? | ? | -11% | -10% | -2
34: OCC1OC(Oc2c[nH]c3ccccc23)C(O)C(O)C1O (stereo unspecified)
    -4% | -8% | 28µM* | . | -1
35: COc1ccc(CCn2c(N)c(C#N)c3nc4ccccc4nc32)cc1OC
    ? | ? | 6% | 4% | 1
36: N#Cc1c(N)n(CCNC(=O)c2cccs2)c2nc3ccccc3nc12
    ? | ? | 9% | 30% | 0
37: COc1ccc(Cn2c(N)c(C#N)c3nc4ccccc4nc32)cc1OC
    ? | 12µM* | 1% | 3% | 0
38: COc1ccc(Cn2c3ccc(OC)cc3c3nc4ccccc4nc32)cc1
    -5% | ? | 5% | 9% | 267*
39: COc1ccc2c(c1)c1nc3ccccc3nc1n2Cc1ccc(OC(C)C)c(OC)c1
    ? | 2% | 0% | -1% | 0
40: N#Cc1c(N)n(CCNC(=O)c2ccccc2)c2nc3ccccc3nc12
    ? | ? | 5% | 18µM* | 1
41: CCC(c1nnnn1-c1ccc2c(c1)OCCO2)N1CCN(c2ccc(C)cc2)CC1 (stereo unspecified)
    . | . | . | . | -1
42: O=C1c2ccccc2-c2onc3c(N4CCN(CCO)CC4)cc(N4CCN(C(=O)c5ccco5)CC4)c1c23
    37µM* | 13% | -15% | . | -5
43: O=C(CCC(=O)Nc1nnc(C2CCCCC2)s1)Nc1ccc(F)cc1
    -4% | 17% | 9% | . | -1
44: COc1ccc(-c2cnc(C(O)c3ccc(OC)c(F)c3)[nH]2)cc1 (stereo unspecified)
    . | . | . | . | 0

A few values from above.
For Rango complex inh, cpd 34 is entered as -4%
For PKM2 activator, cpd 31 is entered as 0%
For PKM2 activator, cpd 33 is entered as -10%
For IL2 activator, cpd 35 is entered as 1
For Rango dissoc inh, cpd 39 is entered as 2%
For A-T KAP1 phos, cpd 40 is entered as 5%
